This note sets out measurements from patent US20040023862A1, “Uses of bombesin receptor 3” (SmithKline Beedham p. l. c., priority 2000, published 2004).

The assay deals with T1, endogenous human BRS-3 in NCI-N417 cells (Homo sapiens, UniProt P32247).
T1 construct: Agonist Pharmacology at the Endogenous Human BRS-3 in NCI-N417 Cells; endogenous in cells; host or cells: NCI-N417 cells
T1 sequence (P32247 1-399): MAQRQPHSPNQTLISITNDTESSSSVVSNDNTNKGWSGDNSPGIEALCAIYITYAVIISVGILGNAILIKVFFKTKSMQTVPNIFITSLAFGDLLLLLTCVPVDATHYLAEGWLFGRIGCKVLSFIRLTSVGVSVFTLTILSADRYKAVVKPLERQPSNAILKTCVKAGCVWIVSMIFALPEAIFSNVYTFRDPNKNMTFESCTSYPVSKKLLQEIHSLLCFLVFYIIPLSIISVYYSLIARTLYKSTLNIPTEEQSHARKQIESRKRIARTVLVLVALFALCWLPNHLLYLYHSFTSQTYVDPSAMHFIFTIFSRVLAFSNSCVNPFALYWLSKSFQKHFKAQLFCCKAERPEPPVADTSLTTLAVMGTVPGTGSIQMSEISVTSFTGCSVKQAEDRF
The assay is described as follows: Agonist pharmacology, FLIPR intracellular calcium (Fluo-3AM) in NCI-N417 cells. The format is cell-based. The note with it: calcium mobilisation, ligands 10 pM-10 μM. The protocol: Agonist Pharmacology at the Endogenous Human BRS-3 in NCI-N417 Cells
NCI-N417 cells were seeded into Costar 96 well black walled plates (30,000 cells per well), cultured overnight in RPMI 1640 medium containing 10% foetal calf serum and 1% L-glutamine, and then loaded with the cytoplasmic calcium indicator Fluo-3AM (4 μM) in the presence of 2.5 mM probenecid at 37° C. for 60 min. The cells were then washed 4× with, and finally resuspended in, Tyrode's medium containing 2.5 mM probenecid. Fluorescence was then monitored using a FLIPR (λEX=488 nm, λEM=540 nm) before and after the addition of various ligands (10 pM-10 μM), as described previously (Smart et al (1999). Br. J. Pharmacol. 128:1-4).
Background: A change in cytosolic calcium serves as a functional read-out for many receptors and channels.

With neuromedin B [NMB], the pEG50 is given as 5.65 ± 0.07.
For AcNMB(3-10) the value was 5.73 ± 0.03.
